Values of other authors, collected in patent US11319376B2, “Combination of glucagon receptor antagonists and PI3K pathway inhibitors for the treatment of cancer” (REMD Biotherapeutics, Inc., priority 2016, dated 2022).

Chains of the proteins cited; added tags and fusions are not shown.
UniProt P78527, whole entry: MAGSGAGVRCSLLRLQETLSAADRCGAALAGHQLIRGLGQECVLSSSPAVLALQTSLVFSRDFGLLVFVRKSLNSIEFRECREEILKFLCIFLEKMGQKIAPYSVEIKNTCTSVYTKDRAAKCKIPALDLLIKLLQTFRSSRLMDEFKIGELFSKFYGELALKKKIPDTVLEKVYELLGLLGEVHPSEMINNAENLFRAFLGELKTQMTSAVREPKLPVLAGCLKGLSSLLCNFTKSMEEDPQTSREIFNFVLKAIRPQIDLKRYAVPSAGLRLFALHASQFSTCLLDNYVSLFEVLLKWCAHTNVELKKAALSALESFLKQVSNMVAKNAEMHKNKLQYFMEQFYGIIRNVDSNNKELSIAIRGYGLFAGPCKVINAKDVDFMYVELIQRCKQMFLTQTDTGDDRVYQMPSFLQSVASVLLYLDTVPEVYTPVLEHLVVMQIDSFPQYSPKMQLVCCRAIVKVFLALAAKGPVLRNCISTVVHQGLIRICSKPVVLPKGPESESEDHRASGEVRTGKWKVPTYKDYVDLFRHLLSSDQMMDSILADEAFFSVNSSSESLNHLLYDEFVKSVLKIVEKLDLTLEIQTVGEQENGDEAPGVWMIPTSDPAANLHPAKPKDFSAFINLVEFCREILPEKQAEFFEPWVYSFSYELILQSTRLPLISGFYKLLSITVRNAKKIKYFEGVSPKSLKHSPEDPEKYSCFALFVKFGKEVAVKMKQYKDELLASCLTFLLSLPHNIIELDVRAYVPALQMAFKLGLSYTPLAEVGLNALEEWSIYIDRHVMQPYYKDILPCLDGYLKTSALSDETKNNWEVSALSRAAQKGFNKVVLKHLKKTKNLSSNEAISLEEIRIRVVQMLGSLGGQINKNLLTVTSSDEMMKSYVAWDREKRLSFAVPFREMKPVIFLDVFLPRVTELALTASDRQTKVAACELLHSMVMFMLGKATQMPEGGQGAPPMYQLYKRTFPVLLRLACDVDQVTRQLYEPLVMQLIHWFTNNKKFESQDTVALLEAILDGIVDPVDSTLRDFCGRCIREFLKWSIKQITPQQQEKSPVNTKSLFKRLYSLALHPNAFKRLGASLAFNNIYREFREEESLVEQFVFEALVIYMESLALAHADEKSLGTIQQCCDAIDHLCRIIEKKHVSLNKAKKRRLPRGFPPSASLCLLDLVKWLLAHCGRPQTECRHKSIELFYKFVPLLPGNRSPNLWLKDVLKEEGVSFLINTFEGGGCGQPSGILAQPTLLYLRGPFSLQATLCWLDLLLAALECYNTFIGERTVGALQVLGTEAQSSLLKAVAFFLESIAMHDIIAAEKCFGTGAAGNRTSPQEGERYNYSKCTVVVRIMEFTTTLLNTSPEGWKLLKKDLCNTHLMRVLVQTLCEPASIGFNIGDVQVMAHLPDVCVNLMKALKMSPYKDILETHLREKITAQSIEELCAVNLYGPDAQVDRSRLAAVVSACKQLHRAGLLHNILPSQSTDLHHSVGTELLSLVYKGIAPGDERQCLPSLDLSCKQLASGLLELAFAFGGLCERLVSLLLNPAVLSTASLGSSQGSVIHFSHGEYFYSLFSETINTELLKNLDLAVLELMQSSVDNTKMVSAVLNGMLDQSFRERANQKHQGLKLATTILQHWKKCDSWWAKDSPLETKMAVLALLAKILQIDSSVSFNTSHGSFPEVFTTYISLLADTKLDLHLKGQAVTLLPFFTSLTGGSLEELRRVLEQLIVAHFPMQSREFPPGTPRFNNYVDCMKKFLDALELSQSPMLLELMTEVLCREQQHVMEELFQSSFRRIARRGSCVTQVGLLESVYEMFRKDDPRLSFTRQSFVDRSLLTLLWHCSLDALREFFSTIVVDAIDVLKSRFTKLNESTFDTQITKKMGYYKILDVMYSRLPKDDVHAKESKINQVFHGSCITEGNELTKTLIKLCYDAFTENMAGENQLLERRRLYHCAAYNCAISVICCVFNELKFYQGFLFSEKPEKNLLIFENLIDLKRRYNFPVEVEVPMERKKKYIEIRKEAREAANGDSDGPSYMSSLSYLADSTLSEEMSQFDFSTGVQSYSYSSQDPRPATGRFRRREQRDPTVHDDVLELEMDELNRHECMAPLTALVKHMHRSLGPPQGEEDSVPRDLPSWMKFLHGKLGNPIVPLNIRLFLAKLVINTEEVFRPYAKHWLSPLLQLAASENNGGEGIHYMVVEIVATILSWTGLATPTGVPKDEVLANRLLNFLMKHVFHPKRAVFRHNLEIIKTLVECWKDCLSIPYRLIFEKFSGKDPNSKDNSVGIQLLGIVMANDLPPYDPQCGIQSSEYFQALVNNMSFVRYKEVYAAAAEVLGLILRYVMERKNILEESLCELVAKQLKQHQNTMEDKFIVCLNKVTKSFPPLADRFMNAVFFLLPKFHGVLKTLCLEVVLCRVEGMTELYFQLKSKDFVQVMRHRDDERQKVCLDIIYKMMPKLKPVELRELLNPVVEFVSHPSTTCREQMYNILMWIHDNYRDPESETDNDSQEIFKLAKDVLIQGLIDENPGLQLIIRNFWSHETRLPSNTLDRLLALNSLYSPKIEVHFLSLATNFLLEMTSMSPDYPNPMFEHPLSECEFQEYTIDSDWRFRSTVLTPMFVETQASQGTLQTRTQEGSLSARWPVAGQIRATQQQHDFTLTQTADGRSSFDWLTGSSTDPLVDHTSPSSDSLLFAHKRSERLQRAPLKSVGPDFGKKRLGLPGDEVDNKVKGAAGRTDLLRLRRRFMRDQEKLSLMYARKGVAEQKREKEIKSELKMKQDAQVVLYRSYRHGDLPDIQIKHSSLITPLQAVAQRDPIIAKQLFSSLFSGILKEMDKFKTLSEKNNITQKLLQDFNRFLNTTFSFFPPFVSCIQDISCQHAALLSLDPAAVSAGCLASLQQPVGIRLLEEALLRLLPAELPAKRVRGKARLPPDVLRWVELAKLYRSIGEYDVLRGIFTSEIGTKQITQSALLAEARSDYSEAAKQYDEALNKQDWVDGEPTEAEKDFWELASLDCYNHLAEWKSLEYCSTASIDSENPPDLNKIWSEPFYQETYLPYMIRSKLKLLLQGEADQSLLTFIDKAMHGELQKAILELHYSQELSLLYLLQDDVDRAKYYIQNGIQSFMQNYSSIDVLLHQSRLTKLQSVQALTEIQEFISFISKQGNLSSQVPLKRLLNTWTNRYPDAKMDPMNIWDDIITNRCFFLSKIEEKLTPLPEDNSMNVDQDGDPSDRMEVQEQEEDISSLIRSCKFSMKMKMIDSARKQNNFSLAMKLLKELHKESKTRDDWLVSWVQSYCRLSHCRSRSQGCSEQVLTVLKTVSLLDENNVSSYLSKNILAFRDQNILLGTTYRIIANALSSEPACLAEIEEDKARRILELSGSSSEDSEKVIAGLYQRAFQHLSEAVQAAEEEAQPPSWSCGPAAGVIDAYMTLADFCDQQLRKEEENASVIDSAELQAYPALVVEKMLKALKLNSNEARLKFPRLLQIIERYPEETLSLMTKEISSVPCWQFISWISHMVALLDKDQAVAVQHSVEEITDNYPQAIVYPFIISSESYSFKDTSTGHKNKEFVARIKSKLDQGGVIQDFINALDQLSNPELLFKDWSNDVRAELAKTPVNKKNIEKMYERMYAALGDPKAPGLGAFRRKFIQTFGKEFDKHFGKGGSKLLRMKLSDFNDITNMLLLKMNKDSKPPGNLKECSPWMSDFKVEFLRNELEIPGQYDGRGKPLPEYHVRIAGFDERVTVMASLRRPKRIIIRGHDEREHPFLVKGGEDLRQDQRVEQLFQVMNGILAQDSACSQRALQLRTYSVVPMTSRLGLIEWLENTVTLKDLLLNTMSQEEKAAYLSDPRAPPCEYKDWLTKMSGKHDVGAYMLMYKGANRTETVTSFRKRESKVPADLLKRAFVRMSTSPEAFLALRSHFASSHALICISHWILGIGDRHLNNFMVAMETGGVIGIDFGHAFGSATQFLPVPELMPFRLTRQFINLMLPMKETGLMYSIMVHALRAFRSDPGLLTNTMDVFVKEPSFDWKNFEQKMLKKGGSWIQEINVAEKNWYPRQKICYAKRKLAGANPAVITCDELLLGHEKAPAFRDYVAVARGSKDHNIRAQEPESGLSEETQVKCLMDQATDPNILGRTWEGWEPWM

Target: DNAPK (Homo sapiens, UniProt P78527)
Details: read-out: Target Selectivity (IC50) DNAPK; cited from earlier work

For `Cc1c(CN2CCN(C(=O)[C@H](C)O)CC2)sc2c(N3CCOCC3)nc(-c3cnc(N)nc3)nc12` [GDC-0980, apitolisib], the IC50 is listed as 623 nM.
